Where “and” joins values, the source holds several entries; their conditions need not be identical. Identical values can stand only once. Like-named read-outs stand apart in the source and are kept apart here.
Columns and labels:
[1] = test system: Toxoplasma gondii tachyzoites of RH strain; assay: Plaque assay (7 days) in NHDF monolayers infected with T. gondii; type: cell-based
Experimental: After NHDF reached confluency, each well was replaced with fresh medium containing one compound at a concentration of 1 µM, and then infected with 1000 newly egressed tachyzoites from RH strain [29]. Screening at 1 μM is recommended by MMV. As a control, infected cells were incubated with complete medium and 0.01% DMSO [29]. The plates were then kept in an incubator at 37 °C in a humid atmosphere with 5% CO2 for seven days. After this time, cultures were fixed with 70% ethanol and stained with crystal violet to observe the plates.
For that, 12-well plates containing a monolayer of NHDF were infected with 600 tachyzoites of the RH strain of T. gondii and treated with different concentrations for seven days. IC50s of compounds were calculated using GraphPad Prism 8.0 software.
Data were analyzed using GraphPad Prim 8.0 software. IC50 and CC50 calculations were performed by fitting the values of proliferation/viability in percentage to a non-linear curve followed by dose–response inhibition analysis through log(inhibitor) vs. normalized response.

NHDF cells = assay: Cytotoxicity assay (MTS, 7 days); type: cell-based, Human
Experimental: For that, 96-well tissue plates containing NHDF cells were treated with different concentrations of compounds up to 10 µM for seven days. Control cells were incubated with 0.5% DMSO. At the end of the treatment, cell viability was then analyzed through the colorimetric method of MTS (Promega, Madison, WI, USA). […] Data were analyzed using GraphPad Prim 8.0 software. IC50 and CC50 calculations were performed by fitting the values of proliferation/viability in percentage to a non-linear curve followed by dose–response inhibition analysis through log(inhibitor) vs. normalized response.

## CCC[C@@H]1C[C@@H](C(=O)N[C@@H]([C@H]2O[C@H](SC)[C@H](O)[C@@H](O)[C@H]2O)[C@H](C)Cl)N(C)C1 [Clindamycin]
[1]; read-out: IC50 (nM) in Tachyzoites of RH Strain (7 Days), 7 days of treatment, two independent experiments
  IC50: < 5 nM and 3.3 nM
[1]; read-out: IC50 (nM) in Tachyzoites of RH Strain (7 Days), 7 days of treatment, two independent experiments, listed as clindamycin
  IC50: < 10 nM
NHDF cells
  SI (Selectivity Index, CC50 NHDF cells/IC50 T. gondii): 2679

— PMC10747034, “Medicines for Malaria Venture Pandemic Box In Vitro Screening Identifies Compounds Highly Active against the Tachyzoite Stage of Toxoplasma gondii” (Tropical Medicine and Infectious Disease, 2023)
